In the experiment the target is ExoY with a C-terminal Flag-His tag (ExoY-FH) (P. aeruginosa PAO1) (UniProt Q9I1S4). Put plainly: pull-down; ExoY-FH held on Ni-NTA agarose; actin (MA-L) polymerized to steady state (F-actin, Mg-ATP), equimolar amounts (12 μg); 50 mM Na-phosphate pH 8.0, 300 mM NaCl, imidazole, 5 mM ATP, 20 mM MgCl2; 1 h at 4 °C; Coomassie, densitometry.

Substance “α-actin from rabbit skeletal muscle (from UniProt P68135 1-377) (natural protein)” had a percent of F-actin recovered by elution with ExoY-FH of 92%.

For the origin of these results see paper PMC5150216.
